Here are results for six compounds from PubChem BioAssay (EPA / NIEHS).

The chains behind the UniProt entries cited, without tags or fusion partners.
UniProt P35869, whole entry: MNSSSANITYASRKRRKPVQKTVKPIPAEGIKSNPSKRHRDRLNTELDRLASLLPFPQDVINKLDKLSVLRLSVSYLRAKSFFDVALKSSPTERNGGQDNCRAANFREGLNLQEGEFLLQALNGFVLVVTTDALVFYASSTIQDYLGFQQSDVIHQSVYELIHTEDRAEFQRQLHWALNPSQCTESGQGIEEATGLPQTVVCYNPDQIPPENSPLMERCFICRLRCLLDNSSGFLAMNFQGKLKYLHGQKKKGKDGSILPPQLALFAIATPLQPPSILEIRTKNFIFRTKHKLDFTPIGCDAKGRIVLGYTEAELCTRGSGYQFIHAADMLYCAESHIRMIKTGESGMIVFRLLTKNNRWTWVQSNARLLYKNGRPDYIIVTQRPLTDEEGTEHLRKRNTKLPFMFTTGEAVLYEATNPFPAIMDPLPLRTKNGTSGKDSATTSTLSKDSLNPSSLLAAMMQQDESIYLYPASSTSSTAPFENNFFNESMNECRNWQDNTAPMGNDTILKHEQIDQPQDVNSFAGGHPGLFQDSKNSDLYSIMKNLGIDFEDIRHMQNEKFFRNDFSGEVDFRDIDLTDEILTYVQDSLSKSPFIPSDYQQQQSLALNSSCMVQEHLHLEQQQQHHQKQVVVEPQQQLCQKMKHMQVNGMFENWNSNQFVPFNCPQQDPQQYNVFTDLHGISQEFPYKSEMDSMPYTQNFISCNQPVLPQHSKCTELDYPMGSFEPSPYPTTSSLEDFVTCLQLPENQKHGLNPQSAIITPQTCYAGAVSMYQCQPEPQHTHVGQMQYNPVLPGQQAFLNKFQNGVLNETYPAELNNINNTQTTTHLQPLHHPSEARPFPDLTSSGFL
UniProt P10276, whole entry: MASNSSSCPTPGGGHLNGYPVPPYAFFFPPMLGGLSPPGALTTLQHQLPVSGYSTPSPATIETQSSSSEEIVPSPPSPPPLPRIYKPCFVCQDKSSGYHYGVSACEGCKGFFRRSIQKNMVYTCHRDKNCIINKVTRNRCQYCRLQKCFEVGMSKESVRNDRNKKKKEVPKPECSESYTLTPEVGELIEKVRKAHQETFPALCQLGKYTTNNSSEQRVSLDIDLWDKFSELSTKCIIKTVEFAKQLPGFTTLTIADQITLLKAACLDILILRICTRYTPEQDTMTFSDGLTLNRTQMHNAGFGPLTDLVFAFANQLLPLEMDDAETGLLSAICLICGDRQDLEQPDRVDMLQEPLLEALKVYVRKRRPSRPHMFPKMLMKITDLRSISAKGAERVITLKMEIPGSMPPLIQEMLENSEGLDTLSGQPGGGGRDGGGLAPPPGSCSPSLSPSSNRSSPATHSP
UniProt Q01094, whole entry: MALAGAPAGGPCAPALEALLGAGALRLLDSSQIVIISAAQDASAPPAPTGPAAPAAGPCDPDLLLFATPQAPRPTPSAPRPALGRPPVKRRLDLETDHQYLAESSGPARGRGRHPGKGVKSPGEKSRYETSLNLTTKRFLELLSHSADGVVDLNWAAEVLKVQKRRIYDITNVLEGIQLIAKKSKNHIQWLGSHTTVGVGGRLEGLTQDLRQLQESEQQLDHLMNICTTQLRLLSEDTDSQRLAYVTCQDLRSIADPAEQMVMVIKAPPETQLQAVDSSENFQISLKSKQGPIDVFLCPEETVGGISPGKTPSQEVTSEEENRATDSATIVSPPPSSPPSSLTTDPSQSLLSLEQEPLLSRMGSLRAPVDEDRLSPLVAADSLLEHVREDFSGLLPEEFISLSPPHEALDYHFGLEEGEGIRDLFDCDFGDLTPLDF
UniProt Q9Y261, whole entry: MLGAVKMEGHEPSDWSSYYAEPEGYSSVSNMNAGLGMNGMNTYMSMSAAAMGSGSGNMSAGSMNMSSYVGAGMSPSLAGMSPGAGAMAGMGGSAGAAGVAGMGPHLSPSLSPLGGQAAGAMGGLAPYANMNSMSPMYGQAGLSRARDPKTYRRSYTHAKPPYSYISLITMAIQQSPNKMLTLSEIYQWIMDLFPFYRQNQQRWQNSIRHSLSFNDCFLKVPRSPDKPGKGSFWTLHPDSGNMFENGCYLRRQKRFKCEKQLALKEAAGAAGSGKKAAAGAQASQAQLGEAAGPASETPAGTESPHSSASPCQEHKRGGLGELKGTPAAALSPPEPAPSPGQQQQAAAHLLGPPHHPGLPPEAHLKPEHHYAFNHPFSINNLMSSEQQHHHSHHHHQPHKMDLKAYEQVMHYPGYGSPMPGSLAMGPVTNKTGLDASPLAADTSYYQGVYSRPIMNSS
UniProt Q16665, whole entry: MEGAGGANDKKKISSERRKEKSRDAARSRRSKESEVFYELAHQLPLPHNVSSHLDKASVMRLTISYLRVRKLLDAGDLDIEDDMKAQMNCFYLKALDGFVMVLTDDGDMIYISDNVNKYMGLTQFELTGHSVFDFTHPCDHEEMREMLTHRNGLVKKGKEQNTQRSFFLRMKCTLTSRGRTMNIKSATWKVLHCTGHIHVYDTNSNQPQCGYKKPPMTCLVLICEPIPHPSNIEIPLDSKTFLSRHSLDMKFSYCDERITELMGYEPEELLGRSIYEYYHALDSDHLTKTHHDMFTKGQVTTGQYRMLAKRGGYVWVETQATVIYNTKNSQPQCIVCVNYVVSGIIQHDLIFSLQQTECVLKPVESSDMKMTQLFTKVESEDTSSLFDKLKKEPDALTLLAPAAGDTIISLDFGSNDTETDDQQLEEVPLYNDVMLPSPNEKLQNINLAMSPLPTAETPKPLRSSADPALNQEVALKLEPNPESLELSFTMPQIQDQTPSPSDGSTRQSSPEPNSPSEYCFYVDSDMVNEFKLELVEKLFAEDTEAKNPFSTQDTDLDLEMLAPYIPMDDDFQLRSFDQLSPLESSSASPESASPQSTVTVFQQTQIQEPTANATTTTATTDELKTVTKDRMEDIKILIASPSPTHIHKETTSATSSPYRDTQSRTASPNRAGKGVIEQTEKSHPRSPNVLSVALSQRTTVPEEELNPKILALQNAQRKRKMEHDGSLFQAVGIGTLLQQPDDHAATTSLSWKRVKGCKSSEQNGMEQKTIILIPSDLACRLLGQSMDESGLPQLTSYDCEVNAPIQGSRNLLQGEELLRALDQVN
UniProt Q9UBC0, whole entry: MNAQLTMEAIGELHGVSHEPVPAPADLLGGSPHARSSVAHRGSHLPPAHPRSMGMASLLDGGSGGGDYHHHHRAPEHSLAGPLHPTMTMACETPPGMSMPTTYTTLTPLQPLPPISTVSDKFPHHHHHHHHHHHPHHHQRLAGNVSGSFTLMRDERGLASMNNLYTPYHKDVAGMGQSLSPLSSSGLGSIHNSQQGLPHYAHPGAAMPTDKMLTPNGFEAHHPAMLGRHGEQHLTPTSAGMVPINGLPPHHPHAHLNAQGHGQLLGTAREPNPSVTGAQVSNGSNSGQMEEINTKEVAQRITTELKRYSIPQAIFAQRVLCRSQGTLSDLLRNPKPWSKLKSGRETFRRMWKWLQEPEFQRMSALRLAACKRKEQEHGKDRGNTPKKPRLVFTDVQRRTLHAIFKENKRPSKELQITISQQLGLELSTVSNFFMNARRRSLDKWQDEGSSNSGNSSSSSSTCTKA
UniProt Q96RI1, whole entry: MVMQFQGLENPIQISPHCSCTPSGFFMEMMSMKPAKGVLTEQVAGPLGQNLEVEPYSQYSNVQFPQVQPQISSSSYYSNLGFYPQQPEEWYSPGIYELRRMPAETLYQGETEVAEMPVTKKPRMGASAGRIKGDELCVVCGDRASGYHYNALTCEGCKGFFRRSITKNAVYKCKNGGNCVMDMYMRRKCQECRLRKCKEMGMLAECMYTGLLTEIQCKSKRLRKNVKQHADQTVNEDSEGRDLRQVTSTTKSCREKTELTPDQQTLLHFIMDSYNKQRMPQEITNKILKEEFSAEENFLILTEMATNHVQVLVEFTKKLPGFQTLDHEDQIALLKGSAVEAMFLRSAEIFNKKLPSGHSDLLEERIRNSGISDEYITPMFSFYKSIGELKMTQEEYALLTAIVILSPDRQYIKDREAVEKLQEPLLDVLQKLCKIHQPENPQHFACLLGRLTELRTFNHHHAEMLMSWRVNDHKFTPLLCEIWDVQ

Test [1] can be described thus: ATG_CRE_CIS: Attagene CIS-FACTORIAL HepG2 Assay for human cAMP Responsive Element (CRE) binding protein 3 (AID 2282926). The settings on record: HepG2 CRE cis-reporter, Attagene multiplexed mRNA; actives raise or lower the signal. Put shortly:
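Human liver HepG2, transient MRTU transfection, 24 h compound exposure. Total RNA → oligo(dT) RT → PCR → 6-FAM primer extension → HpaI cut → CE. Activity called both directions vs DMSO.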

Test [2] in a line: ATG_CMV_CIS: Attagene CIS-FACTORIAL HepG2 Assay for human CMV (Internal Marker) (AID 2282928).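 Also: endpoint acts as a background internal control marker rather than a target.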 The settings on record: HepG2 CMV promoter reporter, transcription factor profiling; actives raise or lower the signal. Put shortly: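 Endogenous transcription factor activity read in HepG2 via transfected cis-promoter reporter units. After 24 h dosing, reporter mRNA measured by RT-PCR/capillary electrophoresis; gain or loss of signal fit relative to DMSO.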

Test [3] in a line: ATG_DR4_LXR_CIS: Attagene CIS-FACTORIAL HepG2 Assay for human Liver X Receptor (LXR), DR4 submotif (AID 2282929). The settings on record: HepG2 Attagene DR4 cis-reporter, mRNA transcription; actives raise or lower the signal. The procedure, abridged: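 Total RNA from 24 h-treated, MRTU-transfected HepG2 cells underwent reverse transcription, PCR, fluorescent primer extension and restriction digestion before capillary electrophoresis. Both increases and decreases in reporter signal were fitted against DMSO.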

For test [4], the target named is Aryl hydrocarbon receptor (Homo sapiens) (UniProt P35869). Put plainly: ATG_Ahr_CIS: Attagene CIS-FACTORIAL HepG2 Assay for human Aryl Hydrocarbon Receptor (Ahr) (AID 2282930). The settings on record: HepG2 AhR cis-factorial reporter transcription; actives raise or lower the signal. The procedure, abridged:
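Endogenous factor activity is tracked through cis-promoter reporter units transfected into HepG2 cells. Transcript levels at 24 h are read by fluorescent RT-PCR and capillary electrophoresis, with activity in either direction scored relative to DMSO.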

Test [5] in a line: ATG_AP_1_CIS: Attagene CIS-FACTORIAL HepG2 Assay for human Activator Protein 1 (AP-1) (AID 2282931). The settings on record: HepG2 Attagene cis-factorial AP-1 reporter mRNA; actives raise or lower the signal. The procedure, abridged:
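HepG2, transient cis-reporter transfection; 24 h; readout RT-PCR/CE fluorescence; DMSO baseline, gain and loss fitted.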

Test [6] is described as follows: ATG_BRE_CIS: Attagene CIS-FACTORIAL HepG2 Assay for human Bone Morphogenetic Protein (BMP) Response Element (BRE) (AID 2282933). The following applies: HepG2 BMP response element reporter, Attagene transcription factor profiling; actives raise or lower the signal. The procedure, abridged:
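Gain- or loss-of-signal was derived by bidirectional fitting against DMSO controls. The signal came from reporter mRNA, measured by RT-PCR and capillary electrophoresis, in HepG2 cells transiently carrying multiple reporter units and dosed for 24 h.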

In test [7] the target is Retinoic acid receptor alpha (Homo sapiens) (UniProt P10276). Put plainly: ATG_DR5_RAR_CIS: Attagene CIS-FACTORIAL HepG2 Assay for human Retinoic Acid Receptor Alpha (RARE), DR5 submotif (AID 2282934).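 As to AC50: reporter responds to endogenous RAR alpha beta and gamma in HepG2 not RARA alone.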 The settings on record: HepG2 Attagene cis-factorial RARE DR5 reporter, mRNA; actives raise or lower the signal.
In test [8] the target is Transcription factor E2F1 (Homo sapiens) (UniProt Q01094). Nature of the test: ATG_E2F_CIS: Attagene CIS-FACTORIAL HepG2 Assay for human E2F Transcription Factor 1 (AID 2282935). The following applies: HepG2 Attagene cis-reporter, E2F reporter RNA transcripts; actives raise or lower the signal. The procedure, abridged:
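Endogenous E2F1 activity read through cis-promoter reporter units transfected into HepG2. After 24 h compound treatment, reporter mRNA measured by RT-PCR, HpaI digestion and capillary electrophoresis. Bidirectional fit versus DMSO.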

Test [9] is described as follows: ATG_E_Box_CIS: Attagene CIS-FACTORIAL HepG2 Assay for human Enhancer Box (E-box) (AID 2282936). The settings on record: HepG2 E-box cis-reporter transcription, actives raise or lower the signal. The procedure, abridged:
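HepG2 cells transiently transfected with multiplexed cis-element reporter units, dosed 24 h; reporter mRNA quantified by RT-PCR, 6-FAM labelling, HpaI digestion and capillary electrophoresis. E-box (USF1) signal fitted bidirectionally vs DMSO.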

Test [10] can be described thus: ATG_M_61_CIS: Attagene CIS-FACTORIAL HepG2 Assay for M61 Transcription Factor (Internal Marker) (AID 2282937). The following applies: HepG2 Attagene CIS-FACTORIAL M61 internal marker reporter; actives raise or lower the signal. Put shortly: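 Transfect HepG2 with MRTUs; dose 24 h; isolate RNA; reverse-transcribe with DNase I treatment; PCR-amplify, FAM-label and cut with HpaI for 2 h at 37 C; resolve by CE. Bidirectional fitting against DMSO.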

Test [11] is described as follows: ATG_M_19_CIS: Attagene CIS-FACTORIAL HepG2 Assay for M19 Transcription Factor (Internal Marker) (AID 2282939). The following applies: HepG2 Attagene CIS-FACTORIAL M19 internal marker reporter; actives raise or lower the signal. Put shortly:
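Following a 24 h exposure, RNA from transfected HepG2 cells was reverse-transcribed, PCR-amplified with reporter-specific primers, end-labelled with 6-FAM and HpaI-digested before capillary separation. Values represent gain or loss versus DMSO.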

The target of test [12] is Hepatocyte nuclear factor 3-beta (Homo sapiens) (UniProt Q9Y261). Put plainly: ATG_FoxA2_CIS: Attagene CIS-FACTORIAL HepG2 Assay for human Forkhead box A2 (FOXA2) (AID 2282942). The following applies: HepG2 cis-reporter transcription factor activity, 24 h; actives raise or lower the signal. Put shortly: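 24 h dosing of HepG2 bearing cis-reporter constructs; mRNA readout by RT-PCR/CE fluorescence; bidirectional fit, DMSO baseline.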

A short description of test [13]: ATG_GATA_CIS: Attagene CIS-FACTORIAL HepG2 Assay for human GATA Binding Protein (AID 2282944). The settings on record: HepG2 GATA cis-element reporter, Attagene multiplex mRNA; actives raise or lower the signal. Put shortly: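 DMSO serves as negative control and baseline for bidirectional fitting of reporter mRNA changes. HepG2 cells bearing transiently transfected cis-promoter reporters were exposed 24 h; transcripts detected via RT-PCR and capillary electrophoresis.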

Test [14] can be described thus: ATG_GRE_CIS: Attagene CIS-FACTORIAL HepG2 Assay for human Glucocorticoid Response Elements (GRE) (AID 2282947). The settings on record: HepG2 GRE cis-reporter, Attagene multiplex mRNA; actives raise or lower the signal. Put shortly: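 Transiently transfected HepG2 cells carrying GRE cis-reporter units (endogenous TF activity) dosed 24 h; reporter mRNA quantified by RT-PCR, 6-FAM labelling, HpaI digestion and capillary electrophoresis. Bidirectional fit versus DMSO baseline.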

Test [15] can be described thus: ATG_ISRE_CIS: Attagene CIS-FACTORIAL HepG2 Assay for human Interferon Regulatory Factor 1 (IRF1) binding to an Interferon-Stimulated Response Element (ISRE) (AID 2282948). The following applies: HepG2 ISRE cis-reporter (Attagene), mRNA transcription readout; actives raise or lower the signal. Put shortly: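 Transfected HepG2 (multiple reporter transcription units, cis elements) dosed 24 h. RNA → oligo(dT) RT → PCR → 6-FAM primer extension → HpaI → CE. DMSO = negative control/baseline.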

A short description of test [16]: ATG_M_32_CIS: Attagene CIS-FACTORIAL HepG2 Assay for M32 Transcription Factor (Internal Marker) (AID 2282949).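 Also: background control marker of the multiplexed CIS panel rather than a real target.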 The settings on record: HepG2 Attagene cis-factorial M32 reporter, mRNA; actives raise or lower the signal. Put shortly: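 HepG2 cells transiently transfected with multiplexed cis-regulated reporter units, dosed 24 h. Reporter mRNA quantified by RT-PCR, 6-FAM labelling, HpaI digestion and capillary electrophoresis; bidirectional fit vs DMSO.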

A short description of test [17]: ATG_M_06_CIS: Attagene CIS-FACTORIAL HepG2 Assay for M06 Transcription Factor (Internal Marker) (AID 2282950). The settings on record: HepG2 Attagene CIS-FACTORIAL M06 internal marker reporter; actives raise or lower the signal. The procedure, abridged:
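Fluorescence-labelled RT-PCR products from cis-promoter reporter units, cut with HpaI and resolved by capillary electrophoresis, give the signal. Cells are human HepG2, dosed for 24 h. Serves as background control, fitted relative to DMSO.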

Test [18] deals with Hypoxia-inducible factor 1-alpha (Homo sapiens) (UniProt Q16665). Nature of the test: ATG_HIF1a_CIS: Attagene CIS-FACTORIAL HepG2 Assay for human Hypoxia Inducible Factor 1 (HIF1A) (AID 2282951). The settings on record: HepG2 Attagene cis-factorial HIF1a reporter transcription; actives raise or lower the signal. Put shortly:
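After 24 h chemical exposure of reporter-transfected HepG2 cells, reporter cDNA was PCR-amplified, labelled by 6-FAM primer extension (2 min 95 C, 20 s 68 C, 10 min 72 C), HpaI-cut (2 h, 37 C) and analysed by CE.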

In test [19] the target is Hepatocyte nuclear factor 6 (Homo sapiens) (UniProt Q9UBC0). Put plainly: ATG_HNF6_CIS: Attagene CIS-FACTORIAL HepG2 Assay for human Hepatocyte Nuclear Factor 6 (HNF6) (AID 2282952). The following applies: HepG2 Attagene cis-factorial HNF6 reporter transcription; actives raise or lower the signal. The procedure, abridged:
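HepG2, transient MRTU transfection (cis promoters); 24 h chemical exposure; total RNA → oligo(dT) RT → PCR → 6-FAM labelling → HpaI cut → CE; bidirectional fit vs DMSO.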

The target of test [20] is Bile acid receptor (Homo sapiens) (UniProt Q96RI1). Put plainly: ATG_IR1_CIS: Attagene CIS-FACTORIAL HepG2 Assay for human Nuclear Receptor Subfamily 1 Group H Member 4 (NR1H4), IR1 submotif (AID 2282946). The settings on record: IR1 reporter transcription, actives raise or lower the signal. Put shortly: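 HepG2 cells transiently transfected with multiple cis-promoter-driven reporter units to measure endogenous transcription factor activity; 24 h exposure. Reporter mRNA read by RT-PCR, FAM labelling, HpaI digestion and capillary electrophoresis. Bidirectional fit versus DMSO.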

The structures appear in SMILES notation. The entries are a selection whose mix differs from that of the whole data set. Active and inactive are the calls of the source. The calls were made as follows: active = hit-call score of the fitted dose curve at least 0.9, where 1 is the maximum; inactive = score below 0.9.

As for `COc1ccc([N+](=O)[O-])cc1[N+](=O)[O-]`, the compound was classed as inactive in test [1], in [2], in test [3], in [4], in test [5] and in test [6]. Moreover, the result in test [7], in [8], in test [9], in test [10], in test [11] and in test [12] was inactive. Moreover, the call in test [13], in test [14], in test [15], in test [16], in test [17] and in test [18] was inactive. Besides, the call in test [19] was inactive.
`CN(C)CCCl`: the call in test [1], in test [2], in test [4], in test [5], in test [6] and in test [7] was inactive. The outcome in test [8], in [9], in test [10], in [11], in [12] and in [13] was inactive. The result in test [20], in [14], in [15], in [16], in [17] and in test [18] was inactive. Also, the compound was classed as inactive in test [19].
As for `Cc1ccc([N+](=O)[O-])cc1[N+](=O)[O-]`, the outcome in [1], in test [2], in test [3], in test [5], in test [6] and in test [8] was inactive. Also, the result in test [9], in [10], in [11], in test [12], in test [13] and in test [14] was inactive. In addition, the call in test [15], in [16], in [17], in test [18] and in test [19] was inactive. In test [4], the AC50 – broadly, the midpoint of the concentration-response curve, whichever way the signal moves – was active: 81.1 µM.
Regarding `N#CBr`, the compound was classed as inactive in test [1], in test [2], in [3], in test [4], in test [5] and in [6]. Besides, the outcome in test [7], in [8], in [9], in [10], in [11] and in test [12] was inactive. Further, the result in test [13], in test [20], in [14], in test [15], in [16] and in test [17] was inactive. Moreover, the compound was classed as inactive in test [18] and in [19].
In the case of `CC(C)N(CCO)C(C)C`, the compound was classed as inactive in test [1], in test [2], in test [3], in test [4], in test [5] and in [6]. The call in [8], in [9], in [10], in test [11], in test [12] and in test [13] was inactive. Further, the call in test [20], in test [14], in test [15], in [16], in [17] and in test [18] was inactive. Moreover, in test [19], the compound was called inactive.
With `Cc1cccc([N+](=O)[O-])c1[N+](=O)[O-]`, the AC50 was active: 107 µM in test [1]; active: 46.2 µM in test [2]; active: 135 µM in test [3]; active: 44.4 µM in test [6]; active: 20 µM in test [7]; active: 105 µM in test [9]. Further, the call in [4], in [8], in [10], in test [11], in test [12] and in [13] was inactive. Further, the call in [14], in test [15], in [16], in test [17], in [18] and in test [19] was inactive.
